These results are taken from US10004826B2, “Implantable human liver tissue constructs and uses thereof” (Massachusetts Institute of Technology, priority 2010, dated 2018).

For the data set, the system named is CYP450. To be noted: intraperitoneal RIF; second week of RIF induction; vs DMSO.

Regarding `CO[C@H]1/C=C/O[C@@]2(C)Oc3c(C)c(O)c4c(O)c(c(/C=N/N5CCN(C)CC5)c(O)c4c3C2=O)NC(=O)/C(C)=C\C=C\[C@H](C)[C@H](O)[C@@H](C)[C@@H](O)[C@@H](C)[C@H](OC(C)=O)[C@@H]1C` [RIF, rifampin], the “Up-regulation of CYP450 activity (BFC) in explants” value is 11.1(+0.1) fold.
